Values quoted from earlier work in patent publication US10406236B2, “Single wall nanotube constructs and uses thereof” (Sloan-Kettering Institute for Cancer Research, priority 2005, dated 2019).

Tested on: tumor expressing cells
Conditions: previous reports; cited from earlier work

Question: Which “ability to kill tumor expressing cells or to produce a successful vaccine” value does the source give for RMFPNAPYL [WTI-126] here?
Answer: Its value is “limited ability”.
